Test results published in ChEMBL document CHEMBL1129630, “Synthesis and structure-activity relationships of retinoid X receptor selective diaryl sulfide analogs of retinoic acid” (J Med Chem, 1996).

The chains behind the UniProt entries cited, without tags or fusion partners.
UniProt P18911, whole entry: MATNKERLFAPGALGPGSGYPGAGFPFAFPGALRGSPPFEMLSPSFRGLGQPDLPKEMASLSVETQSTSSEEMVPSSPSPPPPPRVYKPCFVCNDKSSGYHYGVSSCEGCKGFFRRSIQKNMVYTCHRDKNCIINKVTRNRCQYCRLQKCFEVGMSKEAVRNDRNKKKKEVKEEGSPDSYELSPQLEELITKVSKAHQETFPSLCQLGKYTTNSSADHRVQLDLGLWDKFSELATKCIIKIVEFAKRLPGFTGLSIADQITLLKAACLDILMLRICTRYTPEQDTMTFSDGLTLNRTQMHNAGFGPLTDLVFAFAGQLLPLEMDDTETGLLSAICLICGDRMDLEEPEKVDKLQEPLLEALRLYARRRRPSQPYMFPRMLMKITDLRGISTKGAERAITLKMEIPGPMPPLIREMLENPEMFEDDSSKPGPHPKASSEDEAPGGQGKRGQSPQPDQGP

Key:
[1] = target: T1, Retinoic acid receptor RXR-beta (Homo sapiens, UniProt P28702); assay: Transcriptional activation of Retinoid X receptor RXR beta; design: species or system Cercopithecidae
T1 sequence (P28702 whole entry): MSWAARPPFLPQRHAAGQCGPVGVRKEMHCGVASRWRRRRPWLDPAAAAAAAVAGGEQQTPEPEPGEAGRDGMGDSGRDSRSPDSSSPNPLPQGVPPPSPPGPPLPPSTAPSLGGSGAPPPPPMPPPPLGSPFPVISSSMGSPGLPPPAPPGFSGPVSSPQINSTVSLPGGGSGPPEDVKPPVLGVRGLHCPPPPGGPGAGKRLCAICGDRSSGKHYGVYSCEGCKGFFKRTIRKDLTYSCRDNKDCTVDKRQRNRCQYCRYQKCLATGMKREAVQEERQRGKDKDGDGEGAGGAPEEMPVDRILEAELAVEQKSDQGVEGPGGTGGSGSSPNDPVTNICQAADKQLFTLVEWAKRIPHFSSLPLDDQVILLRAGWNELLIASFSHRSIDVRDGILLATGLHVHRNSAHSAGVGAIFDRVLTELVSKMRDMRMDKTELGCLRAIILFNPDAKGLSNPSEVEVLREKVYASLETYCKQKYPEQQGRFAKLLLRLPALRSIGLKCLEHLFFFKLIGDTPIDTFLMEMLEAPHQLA

[2] = target: Retinoic acid receptor gamma (Mus musculus, UniProt P18911); assay: Dissociation constant for binding to Retinoic acid receptor gamma
Outline: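 Competitive binding assays against each receptor subtype, with Kd values taken from competition.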

Row | SMILES | EC50 [1] | Kd [2]
1 | CC1(C)CCC(C)(C)c2cc(Sc3ccc(C(=O)O)cc3)ccc21 | 1600 nM | 
2 | CC1=C(/C=C/C(C)=C\C=C\C(C)=C\C(=O)O)C(C)(C)CCC1 [ALITRETINOIN] |  | 17 nM
3 | CC1=C(/C=C/C(C)=C/C=C/C(C)=C/C(=O)O)C(C)(C)CCC1 [TRETINOIN] |  | 18 nM
